Experimental data from ChEMBL document CHEMBL3886876, “Kinase modulators for the treatment of cancer” (2016).

Amino acid sequences for entries named in this document (tags omitted). A change or cut given only in a name is not applied to a line headed by its entry.
UniProt Q8N4C8: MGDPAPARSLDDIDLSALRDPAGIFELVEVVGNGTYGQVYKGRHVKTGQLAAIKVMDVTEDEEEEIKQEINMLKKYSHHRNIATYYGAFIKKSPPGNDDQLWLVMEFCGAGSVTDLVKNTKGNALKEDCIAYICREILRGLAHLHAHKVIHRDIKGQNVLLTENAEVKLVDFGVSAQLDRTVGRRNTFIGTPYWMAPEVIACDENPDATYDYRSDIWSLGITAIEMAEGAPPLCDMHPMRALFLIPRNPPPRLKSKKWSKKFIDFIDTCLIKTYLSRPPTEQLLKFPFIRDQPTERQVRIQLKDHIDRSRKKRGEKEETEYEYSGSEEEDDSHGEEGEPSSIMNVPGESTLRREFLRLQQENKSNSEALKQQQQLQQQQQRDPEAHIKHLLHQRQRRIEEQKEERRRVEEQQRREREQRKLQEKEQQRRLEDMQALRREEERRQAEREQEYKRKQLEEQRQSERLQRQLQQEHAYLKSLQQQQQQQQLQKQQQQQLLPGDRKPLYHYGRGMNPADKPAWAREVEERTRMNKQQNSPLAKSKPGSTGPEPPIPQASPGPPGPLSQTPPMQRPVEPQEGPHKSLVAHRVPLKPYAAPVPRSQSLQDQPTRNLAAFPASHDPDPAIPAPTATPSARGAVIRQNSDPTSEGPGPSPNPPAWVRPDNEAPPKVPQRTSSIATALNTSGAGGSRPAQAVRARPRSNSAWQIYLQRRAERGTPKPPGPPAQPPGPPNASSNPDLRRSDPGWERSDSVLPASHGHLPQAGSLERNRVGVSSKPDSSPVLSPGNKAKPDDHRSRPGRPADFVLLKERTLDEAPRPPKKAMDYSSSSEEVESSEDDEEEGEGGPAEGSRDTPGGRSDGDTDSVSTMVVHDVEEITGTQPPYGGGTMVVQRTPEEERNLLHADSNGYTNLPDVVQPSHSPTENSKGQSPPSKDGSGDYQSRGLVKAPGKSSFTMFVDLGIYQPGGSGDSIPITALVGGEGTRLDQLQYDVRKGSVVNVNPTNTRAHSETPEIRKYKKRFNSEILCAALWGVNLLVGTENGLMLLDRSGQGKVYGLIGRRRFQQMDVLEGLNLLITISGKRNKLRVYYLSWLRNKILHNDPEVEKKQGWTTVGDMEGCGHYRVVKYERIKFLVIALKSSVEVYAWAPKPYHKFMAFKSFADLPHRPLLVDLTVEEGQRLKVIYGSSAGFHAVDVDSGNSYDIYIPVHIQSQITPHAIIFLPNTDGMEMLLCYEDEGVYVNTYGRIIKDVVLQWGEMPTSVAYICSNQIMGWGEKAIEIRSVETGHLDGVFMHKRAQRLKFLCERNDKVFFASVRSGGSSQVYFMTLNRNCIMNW

Molecular target: Misshapen-like kinase 1 (Homo sapiens, UniProt Q8N4C8)
Assay: Kinase Assay: FlashPlates from Perkin Elmer (Boston, Mass., USA) with a 50 μl reaction volume are used. The reaction cocktail was pipetted in 4 steps in the following order: 15 μl of ATP solution (in H2O), 20 μl of assay buffer (see below), 5 μl of test sample in 10% DMSO, 10 μl of enzyme/substrate mixture (in H2O). The assay for all enzymes contained 60 mM HEPES-NaOH, pH 7.5, 3 mM MgCl2, 3 mM …

`Nc1c(-c2ccc(F)cc2)c(-c2ccncc2)nn1-c1c(Cl)cc(Cl)cc1Cl` showed an IC50 of 0.099 µM.
